Experimental data as given in PubChem BioAssay AID743397 (Broad Institute, 2014).
Only a part is listed here, and it is no random draw. Calls of active or inactive are those of the source.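 Rule for the calls: active = mean replicate inhibition of at least 30% and at least 1% of replicates passing that level; inconclusive = only one of the two criteria is met; inactive = neither criterion is met.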

Test system: Voltage-dependent L-type calcium channel subunit alpha-1D (CaV1.3) ICDI/IQ interaction
Test: Primary screen for inhibitors of IQ motif and Ca2+-dependent inactivation inhibitor domain binding in CACNA1D, Förster resonance energy transfer in living cells, single-concentration test (AID 743397);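 note: 0% = median of the neutral control wells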
Settings: HEK cells, CFP/YFP FRET ICDI-IQ, plate reader, 10 min; at 12.3 µM; stronger effect = higher value; percent FRET-ratio fall versus neutral wells

| Compound | inhibition |
| --- | --- |
| Cc1ccccc1NC1(C#N)CCN(Cc2ccccc2)CC1 | inactive: -8.78% |
| COc1ccc(C(c2nnnn2C2CCCCC2)N2CCC(n3c(=O)[nH]c4ccccc43)CC2)cc1 (stereo not given) | inactive: -9.08% |
| CCN1CCC(Nc2cccc(F)c2)CC1 | inactive: -5.12% |
| CC(C)(C)n1nnnc1C(c1ccnc2ccccc12)N1CCC(n2c(=O)[nH]c3ccccc32)CC1 (stereo not given) | inactive: -5.41% |
| O=C(NCC1(N2CCCCC2)CCCCC1)c1ccco1 | inactive: -1.58% |
| CN(C)c1ccc(C(=O)NCC2(N3CCCCC3)CCCCC2)cc1 | inactive: 4.76% |
| Cn1c(=O)[nH]cc(N(CCCl)CCCl)c1=O | inactive: -9.15% |
| COc1cccc(C(c2nnnn2C2CCCCC2)N2CCC(n3c(=O)[nH]c4ccccc43)CC2)c1OC (stereo not given) | inactive: -3.24% |
| CC(=O)N(c1ccccc1)C1CCNCC1 | inactive: -2.61% |
| CCC(c1nnnn1C1CCCCC1)N1CCC(n2c(=O)[nH]c3ccccc32)CC1 (stereo not given) | inactive: -4.84% |
| COc1cc(OC)cc(C(=O)NCC2(N3CCCCC3)CCCCC2)c1 | inactive: -2.48% |
| O=c1[nH]c2ccccc2n1C1CCN(C(c2ccnc3ccccc23)c2nnnn2C2CCCCC2)CC1 (stereo not given) | inactive: -5.93% |
| Cc1ccc(C(=O)NCC2(N3CCCCC3)CCCCC2)o1 | inactive: -5.77% |
| Fc1ccccc1NC1CCN(Cc2ccccc2)CC1 | inactive: -6.85% |
| Cc1ccc(NC2(C#N)CCN(Cc3ccccc3)CC2)cc1 | inactive: -9.21% |
| COc1cccc(C(=O)N(c2cc(C)cc(C)c2)C2CCN(C(=O)OC(C)(C)C)CC2)c1 | inactive: -17.8% |
| COc1cc(OC)cc(C(=O)NCC2(N3CCOCC3)CCCCC2)c1 | inactive: -4.35% |
| CN1CCC(Nc2ccc(Cl)cc2)CC1 | inactive: -1.93% |
| CCOc1ncccc1C(=O)NCC1(N2CCOCC2)CCCCC1 | inactive: -3.58% |
| CN1CCC(Nc2ccc(F)c(Cl)c2)CC1 | inactive: 9.25% |
| CC(C)(C)OC(=O)N1CCC(Nc2ccccc2)CC1 | inactive: 6.27% |
| NN(c1ccccc1)C1CCN(CCc2ccccc2)CC1 | inactive: -6.38% |
| O=C(O)C1(Nc2ccccc2)CCN(Cc2ccccc2)CC1 | inactive: -19.5% |
| O=c1[nH]c2ccccc2n1C1CCN(C(c2cc3ccccc3o2)c2nnnn2C2CCCC2)CC1 (stereo not given) | inactive: -6.47% |
| CCCOc1ccc(C(=O)NCC2(N(C)C)CCCCC2)cc1 | inactive: -3.76% |

| Compound | inhibition |
| --- | --- |
| CCOC(=O)N1CCC(Nc2ccc(C)cc2)CC1 | inactive: 11.1% |
| COc1cccc(C(c2nnnn2C(C)(C)C)N2CCC(n3c(=O)[nH]c4ccccc43)CC2)c1OC (stereo not given) | inactive: -4.9% |
| N/C(=N\O)c1c(N)no[n+]1[O-] | inactive: -2.38% |
| O=C(OC1CN2CCC1CC2)C1c2ccccc2C=Cc2ccccc21 (stereo not given) | inactive: -5.83% |
| O=c1[nH]c2ccccc2n1C1CCN(C(c2cccs2)c2nnnn2C2CCCC2)CC1 (stereo not given) | inactive: -4.48% |
| CCCCn1nnnc1C(c1cccc(OC)c1OC)N1CCC(n2c(=O)[nH]c3ccccc32)CC1 (stereo not given) | inactive: -9.98% |
| CCCCn1nnnc1C(c1ccccc1)N1CCC(n2c(=O)[nH]c3ccccc32)CC1 (stereo not given) | inactive: -9.67% |
| COc1cc(C(=O)NCC2(N3CCOCC3)CCCCC2)cc(OC)c1C | inactive: -6.17% |
| O=C(NCC1(N2CCOCC2)CCCCC1)c1cc(Br)ccc1Cl | inactive: -6.22% |
| O=c1[nH]c2ccccc2n1C1CCN(C(c2cccs2)c2nnnn2C2CCCCC2)CC1 (stereo not given) | inactive: -4.51% |
| COc1ccc(C(=O)NCC2(N3CCOCC3)CCCCC2)cc1OC | inactive: -6.92% |
| O=c1[nH]c2ccccc2n1C1CCN(C(c2ccnc3ccccc23)c2nnnn2C2CCCC2)CC1 (stereo not given) | inactive: -5.24% |
| CN(C)C1(CNC(=O)c2cccc(C#N)c2)CCCCC1 | inactive: -19% |
| C/C(N)=N\P(=O)(Oc1ccccc1)Oc1ccccc1 | inactive: -3.84% |
| c1ccc(CN2CCC(Nc3ccccc3)CC2)cc1 | inactive: -5.62% |
| CCCN1CCC(Nc2cc(OC)cc(OC)c2)CC1 | inactive: -19.1% |
| Cc1cc(N(CCCl)CCCl)ccc1C=O | inactive: -2.49% |
| CC(C)(C)n1nnnc1C(c1cccc2ccccc12)N1CCC(n2c(=O)[nH]c3ccccc32)CC1 (stereo not given) | inactive: -5.02% |
| N#Cc1ccc(C(=O)NCC2(N3CCCCC3)CCCCC2)cc1 | inactive: -2.59% |
| CC(C)(C)OC(=O)N1CCC(N(C(=O)c2ccccc2)c2ccc(Cl)cc2)CC1 | inactive: -18.2% |
| O=C(NCC1(N2CCCCC2)CCCCC1)c1cccc(C(F)(F)F)c1 | inactive: -3.47% |
| O=C(NCC1(N2CCOCC2)CCCCC1)c1cc(=O)[nH]c2ccccc12 | inactive: 1.55% |
| COc1cc(C(=O)NCC2(N3CCCCC3)CCCCC2)ccc1OC(F)F | inactive: -7.19% |
| COc1ccc(NC2CCN(C(=O)OC(C)(C)C)CC2)cc1 | inactive: -15.5% |
| CC(C)c1ccc(C(=O)NCC2(N3CCOCC3)CCCCC2)cc1 | inactive: -4.69% |

| Compound | inhibition |
| --- | --- |
| CN1CCN(CCOC(=O)C(O)(c2ccccc2)c2ccccc2)CC1 | inactive: -4.01% |
| CCCCn1nnnc1C(c1cccc2ccccc12)N1CCC(n2c(=O)[nH]c3ccccc32)CC1 (stereo not given) | inactive: -5.93% |
| CC(C)(C)n1nnnc1C(c1ccccc1OC(F)(F)F)N1CCC(n2c(=O)[nH]c3ccccc32)CC1 (stereo not given) | inactive: -5.61% |
| O=C(NCC1(N2CCCCC2)CCCCC1)c1ccc(OC(F)F)cc1 | inactive: -3.1% |
| CCN1CCC(Nc2ccc(Cl)cc2)CC1 | inactive: 12% |
| O=c1[nH]c2ccccc2n1C1CCN(C(c2ccccc2OC(F)(F)F)c2nnnn2C2CCCC2)CC1 (stereo not given) | inactive: -5.32% |
| O=C(NCC1(N2CCCCC2)CCCCC1)c1cccc([N+](=O)[O-])c1 | inactive: -17.5% |
| CSc1ccc(C(=O)NCC2(N3CCOCC3)CCCCC2)cc1 | inactive: -5.04% |
| CN1CCC(Nc2cccc(F)c2)CC1 | inactive: -6.4% |
| O=C(NCC1(N2CCCCC2)CCCCC1)c1cncc(Br)c1 | inactive: -4.9% |
| COc1ccc(C(c2nnnn2C2CCCC2)N2CCC(n3c(=O)[nH]c4ccccc43)CC2)cc1 (stereo not given) | inactive: -9.79% |
| Cc1ccc(C(=O)NCC2(N(C)C)CCCCC2)o1 | inactive: -6.25% |
| CCCOc1ccc(C(=O)NCC2(N(C)C)CCCCC2)cc1OC | inactive: -4.34% |
| COc1ccc(CN(CCCl)CCCl)cc1Cl | inactive: -9.05% |
| CN(C)c1cccc(C(=O)NCC2(N3CCCCC3)CCCCC2)c1 | inactive: -3.95% |
| COc1cc(OC)c(C(=O)NCC2(N(C)C)CCCCC2)cc1OC | inactive: -3.81% |
| O=C(NCC1(N2CCOCC2)CCCCC1)c1cc(F)c(F)cc1Cl | inactive: -5.76% |
| CCC(c1nnnn1C(C)(C)C)N1CCC(n2c(=O)[nH]c3ccccc32)CC1 (stereo not given) | inactive: -2.99% |
| CCCCn1nnnc1C(c1ccnc2ccccc12)N1CCC(n2c(=O)[nH]c3ccccc32)CC1 (stereo not given) | inactive: -8.9% |
| O=C(NCC1(N2CCCCC2)CCCCC1)c1ccc(Cl)nc1 | inactive: -7% |
| O=c1[nH]c2ccccc2n1C1CCN(C(c2ccccc2OC(F)(F)F)c2nnnn2C2CCCCC2)CC1 (stereo not given) | inactive: -4.49% |
| Cc1cc(C)cc(N(C(=O)c2ccccc2)C2CCN(C(=O)OC(C)(C)C)CC2)c1 | inactive: -17.8% |
| O=C(NCC1(N2CCCCC2)CCCCC1)c1ccc(Cl)s1 | inactive: -15.3% |
| N#CC1(Nc2ccccc2)CCN(Cc2ccccc2)CC1 | inactive: -4.58% |
| O=c1[nH]c2ccccc2n1C1CCN(C(c2cc3ccccc3o2)c2nnnn2C2CCCCC2)CC1 (stereo not given) | inactive: -6.63% |

| Compound | inhibition |
| --- | --- |
| O=C(OC1CN2CCC1CC2)C1c2ccccc2Oc2ccccc21 (stereo not given) | inactive: -6.61% |
| COc1ccc(Cl)cc1C(=O)NCC1(N2CCOCC2)CCCCC1 | inactive: -2.22% |
| CCOC(=O)N1CCC(Nc2ccc(OC)cc2)CC1 | inactive: -4.14% |
| CCCCn1nnnc1C(c1ccc(OC)cc1)N1CCC(n2c(=O)[nH]c3ccccc32)CC1 (stereo not given) | inactive: -5.93% |
| COc1ccc(C(=O)NCC2(N3CCCCC3)CCCCC2)cc1 | inactive: -5.71% |
| COc1ccc(C(=O)NCC2(N3CCCCC3)CCCCC2)c(OC)c1OC | inactive: 6.82% |
| CC(C)(C)OC(=O)N1CCC(N(C(=O)c2ccccc2)c2ccc(F)cc2)CC1 | inactive: -15.9% |
| CCC(c1nnnn1C1CCCC1)N1CCC(n2c(=O)[nH]c3ccccc32)CC1 (stereo not given) | inactive: -3.09% |
| O=C(NCC1(N2CCCCC2)CCCCC1)c1ccc(=O)[nH]c1 | inactive: -2.8% |
| CCCCn1nnnc1C(CC)N1CCC(n2c(=O)[nH]c3ccccc32)CC1 (stereo not given) | inactive: -4.38% |
| O=C(NCC1(N2CCCCC2)CCCCC1)c1cccs1 | inactive: -5.5% |
| CCCCn1nnnc1C(c1cccs1)N1CCC(n2c(=O)[nH]c3ccccc32)CC1 (stereo not given) | inactive: -2.67% |
| CSc1ccccc1C(=O)NCC1(N2CCCCC2)CCCCC1 | inactive: -2.65% |
| Cc1cccc(NC2(C#N)CCN(Cc3ccccc3)CC2)c1 | inactive: -6.18% |
| O=c1[nH]c2ccccc2n1C1CCN(C(c2ccccc2)c2nnnn2C2CCCCC2)CC1 (stereo not given) | inactive: -6.09% |
| CCOC(=O)N1CCC(Nc2cccc(C)c2)CC1 | inactive: -2.3% |
| COc1cc(C(=O)NCC2(N(C)C)CCCCC2)ccc1OC(F)F | inactive: -20.6% |
| O=c1[nH]c2ccccc2n1C1CCN(C(c2cccc3ccccc23)c2nnnn2C2CCCC2)CC1 (stereo not given) | inactive: -5.52% |
| CC(C)(C)n1nnnc1C(c1ccccc1)N1CCC(n2c(=O)[nH]c3ccccc32)CC1 (stereo not given) | inactive: -9.49% |
| CCOc1ccc(C)cc1CN(CCCl)CCCl | inactive: -12.1% |
| CCCCOc1ccc(C(=O)NCC2(N3CCOCC3)CCCCC2)cc1 | inactive: -2.68% |
| O=P1(N(CCCl)CCCl)SCCCS1 | inactive: -9.31% |
| O=C(NCC1(N2CCCCC2)CCCCC1)c1ccc(F)cc1 | inactive: -7.34% |
| CCOC(=O)N1CCC(Nc2ccc(F)cc2)CC1 | inactive: -4.3% |
| COc1ccc(NC2CCN(CCc3ccccc3)CC2)c(OC)c1 | inactive: -3.52% |
